Results reported in ChEMBL document CHEMBL5528013 (Eur J Med Chem, 2024).

Assays:
[1] = tested on: MOLM-14; assay: Antiproliferative activity against human MOLM-14 cells harboring FLT3-D835Y mutant assessed as inhibition of cell growth incubated for 72 hrs by resazurin dye based assay; type: functional; details: MOLM-14, 72 h
Outline: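 Logarithmic-phase cells were seeded at 5000 per well and treated 24 h later, in triplicate, with various concentrations for 72 h. MOLM14 lines were grown in RPMI with 10 % FBS, and other lines per provider instructions, all at 37 °C and 5 % CO2. Resazurin was then added for 4–6 h and fluorescence read. GI50 was taken from percent growth versus DMSO control, fitted with a variable-slope normalized-response model; at least three runs.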

[2] = tested on: MOLM-14; type: functional, cell-based; details: Homo sapiens, MOLM-14, 72 h

`COc1cc2/c(=N/c3ccc(Br)cc3F)nc[nH]c2cc1OCC1CCN(C)CC1` [VANDETANIB] gave an IC50 [1] of 2800 nM.
Work on `CCc1nc(C(N)=O)c(Nc2ccc(N3CCC(N4CCN(C)CC4)CC3)c(OC)c2)nc1NC1CCOCC1` [GILTERITINIB] yielded an IC50 [1] of 7.83 nM and an IC50 [2] of 58.8 nM.
